These are literature values, as cited in publication PMC7617969, “Carboxylic Acid Bioisosteres Boost Nurr1 Agonist Selectivity” (Journal of medicinal chemistry, 2025).

Sequences of proteins named here, by UniProt entry; tags and fusion partners are left off. Residues count along the entry.
UniProt P43354, 360-595 limits assumed: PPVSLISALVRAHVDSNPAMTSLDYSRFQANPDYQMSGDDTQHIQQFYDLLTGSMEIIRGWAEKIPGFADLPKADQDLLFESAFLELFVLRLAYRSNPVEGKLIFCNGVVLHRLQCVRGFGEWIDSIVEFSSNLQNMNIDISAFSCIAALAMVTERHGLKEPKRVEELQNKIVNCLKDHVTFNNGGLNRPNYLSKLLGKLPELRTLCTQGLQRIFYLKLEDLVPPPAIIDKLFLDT

Like-named read-outs stand apart in the source and are kept apart here.

The target in this data set is T1, Nurr1 (Homo sapiens, UniProt P43354).
T1 construct: expressed in transfected cells; host or cells: HEK293T
To be noted: cited from earlier work; for max. activation (Nurr1): Gal4-Nurr1 hybrid reporter gene assay; for efficacy_NR4A2: supplementary csv.

Regarding `COc1cccc(-c2ccc(NC(=O)C3=C(C(=O)O)CCC3)c(F)c2)c1` [compound 7, vidofludimus], the efficacy_NR4A2 is recorded as 310%. For the same compound, under “listed as 7 (vidofludimus)”, the “max. activation (Nurr1)” value is recorded as “(0.4±0.2-μM) (3.1±0.4-fold)”.
For `[2H]C([2H])([2H])Oc1cccc(-c2ccc(NC(=O)C3=C(C(=O)O)CCC3)c(F)c2)c1` [compound 9], the “max. activation (Nurr1)” value is listed as 2.6±0.1 fold and the efficacy_NR4A2 is reported as 260%.
